Data set [1] concerns Abeta oligomer-induced membrane trafficking deficits in primary hippocampal neurons. The experiment in a line: Membrane trafficking/exocytosis (MTT) assay. The conditions noted are these: synthetic Abeta oligomer, increasing compound concentrations. It is filed as cell-based, rat.
For data set [2] the following is noted: mouse, in vivo.
Data set [3] is described as follows: In vivo PK, plasma and brain levels. Particulars: Compound II, at 3 hours in b899.
The target of the next data set is NMDAR2B (Homo sapiens, UniProt Q13224). The conditions noted are these: b58; cited from earlier work.

Protein sequences, listed by entry. Tags and fused reporters are not part of them. Residues count along the entry.
UniProt Q13224, 27-1484, species assumed: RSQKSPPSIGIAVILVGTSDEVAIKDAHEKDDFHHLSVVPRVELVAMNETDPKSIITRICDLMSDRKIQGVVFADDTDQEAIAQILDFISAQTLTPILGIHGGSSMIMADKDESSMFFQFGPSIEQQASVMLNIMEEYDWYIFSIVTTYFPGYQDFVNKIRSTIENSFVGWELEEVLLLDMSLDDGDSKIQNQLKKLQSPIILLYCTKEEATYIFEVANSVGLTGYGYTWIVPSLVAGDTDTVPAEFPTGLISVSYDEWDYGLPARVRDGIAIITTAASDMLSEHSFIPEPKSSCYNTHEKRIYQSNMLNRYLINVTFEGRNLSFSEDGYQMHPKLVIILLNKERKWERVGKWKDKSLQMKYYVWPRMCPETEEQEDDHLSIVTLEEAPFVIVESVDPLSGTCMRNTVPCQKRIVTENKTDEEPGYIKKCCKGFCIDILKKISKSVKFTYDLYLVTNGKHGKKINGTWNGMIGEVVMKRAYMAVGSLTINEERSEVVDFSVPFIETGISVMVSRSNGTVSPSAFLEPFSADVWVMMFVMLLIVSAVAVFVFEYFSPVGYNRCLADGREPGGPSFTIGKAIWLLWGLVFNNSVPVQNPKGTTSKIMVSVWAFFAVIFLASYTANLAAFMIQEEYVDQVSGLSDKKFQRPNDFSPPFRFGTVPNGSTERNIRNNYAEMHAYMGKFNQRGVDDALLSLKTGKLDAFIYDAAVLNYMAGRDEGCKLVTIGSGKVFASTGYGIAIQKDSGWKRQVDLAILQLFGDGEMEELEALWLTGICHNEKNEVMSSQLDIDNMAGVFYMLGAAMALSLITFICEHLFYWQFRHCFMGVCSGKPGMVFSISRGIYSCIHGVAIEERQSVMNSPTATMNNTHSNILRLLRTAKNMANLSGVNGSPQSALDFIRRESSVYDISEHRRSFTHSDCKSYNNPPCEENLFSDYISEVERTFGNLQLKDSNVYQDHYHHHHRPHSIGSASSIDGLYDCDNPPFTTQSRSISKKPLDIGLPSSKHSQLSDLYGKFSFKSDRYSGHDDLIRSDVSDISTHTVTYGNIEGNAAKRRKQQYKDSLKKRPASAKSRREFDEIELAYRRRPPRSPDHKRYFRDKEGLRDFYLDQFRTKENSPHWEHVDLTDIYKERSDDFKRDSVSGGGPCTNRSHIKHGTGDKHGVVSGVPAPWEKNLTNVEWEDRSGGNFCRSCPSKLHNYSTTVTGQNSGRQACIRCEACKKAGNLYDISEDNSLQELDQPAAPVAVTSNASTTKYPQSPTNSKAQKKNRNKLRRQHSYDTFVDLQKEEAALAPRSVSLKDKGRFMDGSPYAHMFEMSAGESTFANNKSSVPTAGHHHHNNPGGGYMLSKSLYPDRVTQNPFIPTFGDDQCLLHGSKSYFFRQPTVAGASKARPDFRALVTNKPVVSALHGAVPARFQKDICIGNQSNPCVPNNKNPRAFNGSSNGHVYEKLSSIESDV

With `COc1cc(CCC(C)NCc2ccc(C(F)(F)F)cc2)ccc1O` (centres unmarked) [Compound II], the “Shift of Abeta oligomer EC50” value in data set [1] is “rightward shift”. In addition, in data set [2], the “Brain penetration” value is given as “highly brain penetrant”. Also, the values for the Brain/plasma ratio in data set [3] and in data set [3] (listed as compound II) were 8 and over 8, respectively.

For the molecule `C[C@@H]([C@@H](O)c1ccc(O)cc1)N1CCC(Cc2ccccc2)CC1` [Threo-ifenprodil (TIF), Threo-ifenprodil], on NMDAR2B, the “Affinity NR2B” value is recorded as 222 nM.

The values are drawn from patent publication US20140378460A1, “COMPOSITIONS AND METHODS FOR TREATING NEURODEGENERATIVE DISEASE” (COGNITION THERAPEUTICS, INC., priority 2011, published 2014).
